ChEMBL document CHEMBL1147510, “Activity of alpha7-selective agonists at nicotinic and serotonin 5HT3 receptors expressed in Xenopus oocytes” (Bioorg Med Chem Lett, 2004)

Protein sequences, listed by entry. Tags and fused reporters are not part of them.
UniProt P35563, whole entry: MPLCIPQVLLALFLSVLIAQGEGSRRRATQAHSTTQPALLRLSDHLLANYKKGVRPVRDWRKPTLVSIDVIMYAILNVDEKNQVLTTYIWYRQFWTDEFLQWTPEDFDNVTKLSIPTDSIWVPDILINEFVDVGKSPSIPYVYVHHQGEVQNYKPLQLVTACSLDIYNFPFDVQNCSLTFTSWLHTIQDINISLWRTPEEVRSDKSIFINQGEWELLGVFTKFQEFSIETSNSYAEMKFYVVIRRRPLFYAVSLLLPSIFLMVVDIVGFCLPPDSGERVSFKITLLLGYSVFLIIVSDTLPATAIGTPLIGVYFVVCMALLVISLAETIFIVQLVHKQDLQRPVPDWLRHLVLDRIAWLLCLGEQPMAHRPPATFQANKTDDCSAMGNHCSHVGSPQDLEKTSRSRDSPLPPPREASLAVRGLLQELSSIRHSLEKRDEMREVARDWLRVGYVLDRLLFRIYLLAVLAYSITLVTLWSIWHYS

Biological target: 5-hydroxytryptamine receptor 3A (Rattus norvegicus, UniProt P35563)
Assay: Response at rat 5-hydroxytryptamine 3a receptor expressed in xenopus oocytes
Type: functional, cell-based, Oocyte

Structure (SMILES): NCCc1c[nH]c2ccc(O)cc12 [SEROTONIN]
- EC50: 12 µM
